These results are taken from US20250032526A1, “COMPOSITION, METHOD FOR PREPARING SAME, AND USE THEREOF” (priority 2022, published 2025).

This data set can be described thus: Compatibility of raw material and auxiliary material (content measurement). It counts as physicochemical. The procedure:
The mixture was allowed to stand at 60° C. high temperature condition (60° C.), high humidity condition (25° C., 92.5% RH), acceleration condition (40° C.±2° C., 75% RH±5%), and light condition (4500 1×±500 1×) for 10 days and 30 days, and then taken out to detect the content and the change of the related substance.

With `N#C[C@@]1(c2ccc3c(N)ncnn23)O[C@H](COC(=O)C2CCCCC2)[C@@H](O)[C@H]1O` [ATV014], under “0 day”, the “Content measurement result, 0 day” value came to 101.8%. Further, the “Content measurement result, 25° C./92.5% RH, open, 30 day” value (25° C./92.5% RH, open, 30 day) amounted to 99.8%. The “Content measurement result, 40° C./75% RH, open, 10 day” value (40° C./75% RH, open, 10 day) stood at 102.2%. Further, for the setting “40° C./75% RH, open, 30 day”, the “Content measurement result, 40° C./75% RH, open, 30 day” value stood at 101.0%. For the setting “Illumination, open (4500 lx ± 500 lx), 10 day”, the “Content measurement result, Illumination, open, 10 day” value turned out to be 100.9%.
